Assay results: US20170334959A1 (priority 2015, published 2017)

Chains of the proteins cited; added tags and fusions are not shown.
UniProt Q9UQD0, whole entry: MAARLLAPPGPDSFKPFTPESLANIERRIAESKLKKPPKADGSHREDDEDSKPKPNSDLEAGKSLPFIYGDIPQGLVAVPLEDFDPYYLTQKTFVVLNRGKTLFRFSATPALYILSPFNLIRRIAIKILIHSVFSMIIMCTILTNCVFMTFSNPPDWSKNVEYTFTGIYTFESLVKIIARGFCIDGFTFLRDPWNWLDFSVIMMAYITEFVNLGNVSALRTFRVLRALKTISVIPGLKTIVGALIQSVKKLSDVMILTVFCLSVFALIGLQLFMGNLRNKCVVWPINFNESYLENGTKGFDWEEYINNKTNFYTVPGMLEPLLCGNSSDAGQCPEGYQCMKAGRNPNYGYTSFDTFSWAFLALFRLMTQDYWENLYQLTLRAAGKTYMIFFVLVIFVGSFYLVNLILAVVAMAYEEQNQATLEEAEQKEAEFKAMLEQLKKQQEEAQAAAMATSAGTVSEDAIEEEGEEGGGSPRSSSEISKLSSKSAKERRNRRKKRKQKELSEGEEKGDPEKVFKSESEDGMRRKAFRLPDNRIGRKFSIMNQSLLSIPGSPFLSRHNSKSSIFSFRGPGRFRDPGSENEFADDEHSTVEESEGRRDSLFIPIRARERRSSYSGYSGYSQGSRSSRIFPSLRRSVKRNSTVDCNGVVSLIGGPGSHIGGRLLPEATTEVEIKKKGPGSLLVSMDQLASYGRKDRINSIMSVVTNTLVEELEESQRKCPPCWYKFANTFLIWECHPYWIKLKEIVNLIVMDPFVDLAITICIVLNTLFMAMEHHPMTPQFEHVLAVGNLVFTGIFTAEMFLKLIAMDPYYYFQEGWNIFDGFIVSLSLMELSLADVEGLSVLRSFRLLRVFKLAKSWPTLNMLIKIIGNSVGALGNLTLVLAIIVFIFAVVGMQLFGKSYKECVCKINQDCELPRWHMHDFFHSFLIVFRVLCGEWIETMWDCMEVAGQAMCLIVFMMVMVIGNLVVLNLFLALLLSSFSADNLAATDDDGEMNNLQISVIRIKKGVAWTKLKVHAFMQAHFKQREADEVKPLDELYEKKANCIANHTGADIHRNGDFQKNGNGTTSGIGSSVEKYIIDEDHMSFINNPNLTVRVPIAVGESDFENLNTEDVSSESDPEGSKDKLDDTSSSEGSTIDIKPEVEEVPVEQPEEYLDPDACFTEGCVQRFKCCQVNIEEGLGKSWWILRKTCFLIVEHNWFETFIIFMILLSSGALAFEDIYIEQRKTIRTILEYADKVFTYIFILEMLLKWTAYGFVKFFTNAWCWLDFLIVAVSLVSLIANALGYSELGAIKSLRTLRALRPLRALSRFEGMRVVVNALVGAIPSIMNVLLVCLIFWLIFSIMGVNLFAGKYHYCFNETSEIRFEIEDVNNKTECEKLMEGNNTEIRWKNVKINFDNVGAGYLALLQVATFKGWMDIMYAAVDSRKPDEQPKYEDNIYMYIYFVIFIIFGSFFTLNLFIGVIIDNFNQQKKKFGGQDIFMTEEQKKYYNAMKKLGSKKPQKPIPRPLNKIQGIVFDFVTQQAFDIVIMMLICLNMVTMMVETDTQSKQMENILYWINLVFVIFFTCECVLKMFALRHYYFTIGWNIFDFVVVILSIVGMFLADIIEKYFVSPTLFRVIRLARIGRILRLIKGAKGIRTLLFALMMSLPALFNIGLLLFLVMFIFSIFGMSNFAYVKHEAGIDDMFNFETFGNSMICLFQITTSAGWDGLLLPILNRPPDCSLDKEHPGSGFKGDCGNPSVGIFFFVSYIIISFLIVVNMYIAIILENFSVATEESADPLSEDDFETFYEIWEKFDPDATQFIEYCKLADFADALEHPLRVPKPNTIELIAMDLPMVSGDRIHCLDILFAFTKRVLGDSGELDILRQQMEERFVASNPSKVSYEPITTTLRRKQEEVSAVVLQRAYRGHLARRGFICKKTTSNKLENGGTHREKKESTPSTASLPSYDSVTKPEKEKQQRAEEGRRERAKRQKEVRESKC

Target: human Nav1.6 (Homo sapiens, UniProt Q9UQD0)
Format: cell-based

Substance: GPQCQKWMQTCDRERKCCEGFVCTLWCRKKLW-COOH [NV1D3034]
- selectivity for Nav1.7 compared to recombinant Protoxin-II: improved selectivity
